Experiments:
[1] = biological target: E. coli CsgA protein with a C-terminal 6× His tag (E. coli) (UniProt P28307)
[2] = biological target: E. coli CsgA protein with a C-terminal 6× His tag (E. coli) (UniProt P28307); remark: listed apart in the source

Amino acid sequences for entries named in this document (tags omitted). Residues count along the entry.
UniProt P28307, 21-151: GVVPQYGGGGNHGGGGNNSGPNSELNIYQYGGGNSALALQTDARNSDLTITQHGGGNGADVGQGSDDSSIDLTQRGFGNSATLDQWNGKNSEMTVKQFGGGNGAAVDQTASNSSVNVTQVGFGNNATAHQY

Substance: amyloid-β peptide Aβ (1–42) (from UniProt P05067 672-713)
- decrease in curli formation in E. coli UTI89 biofilms (ThT signal) grown with 7.5 µM α-sheet oligomeric Aβ [1]: 50%
- decrease in cell and biofilm density (OD600) of UTI89 biofilms grown with 7.5 µM oligomeric Aβ [2]: 47%

Reference: paper PMC10912764
